# Data: ChEMBL document CHEMBL1132995, “High-affinity, non-peptide agonists for the ORL1 (orphanin FQ/nociceptin) receptor” (2000)
# Amino acid sequences for entries named in this document (tags omitted).
# UniProt P35372, whole entry: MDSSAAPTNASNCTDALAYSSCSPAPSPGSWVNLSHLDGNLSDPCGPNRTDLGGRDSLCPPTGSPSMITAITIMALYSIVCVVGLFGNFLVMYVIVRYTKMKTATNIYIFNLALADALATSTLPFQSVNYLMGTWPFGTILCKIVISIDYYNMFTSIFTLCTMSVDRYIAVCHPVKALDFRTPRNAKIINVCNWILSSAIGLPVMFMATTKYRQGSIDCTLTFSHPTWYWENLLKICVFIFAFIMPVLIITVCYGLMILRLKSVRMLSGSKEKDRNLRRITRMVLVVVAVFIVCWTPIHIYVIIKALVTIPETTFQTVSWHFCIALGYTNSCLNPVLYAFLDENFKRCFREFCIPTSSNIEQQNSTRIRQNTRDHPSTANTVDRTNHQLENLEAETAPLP
# UniProt P41146, whole entry: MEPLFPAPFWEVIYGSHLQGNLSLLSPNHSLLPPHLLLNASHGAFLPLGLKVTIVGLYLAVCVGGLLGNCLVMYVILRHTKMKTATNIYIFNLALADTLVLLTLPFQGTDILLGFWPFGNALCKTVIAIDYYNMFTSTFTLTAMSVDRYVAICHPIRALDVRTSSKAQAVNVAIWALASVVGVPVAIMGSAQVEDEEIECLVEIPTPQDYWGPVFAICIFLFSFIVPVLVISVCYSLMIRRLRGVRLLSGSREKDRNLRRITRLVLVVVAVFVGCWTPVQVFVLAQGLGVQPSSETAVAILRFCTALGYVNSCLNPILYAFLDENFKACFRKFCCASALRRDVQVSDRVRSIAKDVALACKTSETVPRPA
# UniProt P41143, whole entry: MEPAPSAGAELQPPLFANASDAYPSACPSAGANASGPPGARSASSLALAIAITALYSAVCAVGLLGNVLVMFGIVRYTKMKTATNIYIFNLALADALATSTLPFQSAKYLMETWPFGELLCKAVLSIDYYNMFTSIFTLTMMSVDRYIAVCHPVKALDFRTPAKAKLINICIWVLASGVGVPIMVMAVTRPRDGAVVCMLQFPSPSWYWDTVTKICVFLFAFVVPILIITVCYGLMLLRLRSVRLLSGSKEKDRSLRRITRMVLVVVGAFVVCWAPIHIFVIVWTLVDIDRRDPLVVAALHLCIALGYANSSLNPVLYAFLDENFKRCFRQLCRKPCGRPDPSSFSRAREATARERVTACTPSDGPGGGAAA
# Key:
# [1] = molecular target: T1, Kappa-type opioid receptor (Homo sapiens, UniProt P41145); test: Competitive binding displacement analyses was performed from permanently transfected HEK293 cells expressing human Opioid receptor kappa 1
# Mu-type opioid receptor [2] = molecular target: T2, Mu-type opioid receptor (Homo sapiens, UniProt P35372); test: Competitive binding displacement analyses was performed from permanently transfected HEK293 cells expressing human Opioid receptor mu 1
# Nociceptin receptor [3] = molecular target: T3, Nociceptin receptor (Homo sapiens, UniProt P41146); test: Competitive binding affinity against transfected HEK293 cells expressing human Opioid receptor like 1
# Mu-type opioid receptor [4] = molecular target: T2, Mu-type opioid receptor; test: Effective concentration of the required to stimulate binding of GTPgammaS to mu1 receptor was determined using scintillation proximity assay
# [5] = molecular target: T4, Delta-type opioid receptor (Homo sapiens, UniProt P41143); test: Competitive binding displacement analyses was performed from permanently transfected HEK293 cells expressing human Opioid receptor delta 1
# [6] = molecular target: T1, Kappa-type opioid receptor; test: Competitive binding displacement analyses was performed from permanently transfected HEK293 cells expressing Opioid receptor kappa 1
# Mu-type opioid receptor [7] = molecular target: T2, Mu-type opioid receptor; test: Competitive binding displacement analyses was performed from permanently transfected HEK293 cells expressing Opioid receptor mu 1
# Nociceptin receptor [8] = molecular target: T3, Nociceptin receptor; test: Competitive binding affinity against transfected HEK293 cells expressing Opioid receptor like 1
# [9] = molecular target: T4, Delta-type opioid receptor; test: Competitive binding displacement analyses was performed from permanently transfected HEK293 cells expressing Opioid receptor delta 1
# Nociceptin receptor [10] = molecular target: T3, Nociceptin receptor; test: Effective concentration required to stimulate binding of GTPgammaS to Opioid receptor like 1 was determined using scintillation proximity assay
# Nociceptin receptor [11] = molecular target: T3, Nociceptin receptor; test: Effective concentration required to stimulate binding of GTPgammaS to human ORL1 receptor was determined using scintillation proximity assay
# Mu-type opioid receptor [12] = molecular target: T2, Mu-type opioid receptor; test: Effective concentration of the required to stimulate binding of GTPgammaS to human mu1 receptor was determined using scintillation proximity assay
# Nociceptin receptor [13] = molecular target: T3, Nociceptin receptor; test: Effective concentration required to stimulate binding of GTPgammaS to ORL1 receptor was determined using scintillation proximity assay
Compound,Ki [1],Ki (Mu-type opioid receptor [2]),Ki (Nociceptin receptor [3]),Ki [5],further results
C=CCN1CN(c2ccccc2)C2(CCN(C3CCc4c(Cl)ccc(Cl)c4C3)CC2)C1=O (centres undefined),0.0262 µM,0.0059 µM,0.0068 µM,,
O=C1NCN(c2ccccc2)C12CCN(C1Cc3cccc4cccc1c34)CC2 (centres undefined),,,,,EC50 (Mu-type opioid receptor [4]): 2.5 µM
O=C1NCN(c2ccccc2)C12CCN([C@H]1CCc3c(Cl)ccc(Cl)c3C1)CC2,0.0401 µM,0.0059 µM,0.0028 µM,0.415 µM,
COCN1CN(c2ccccc2)C2(CCN(C3CCc4cccc(Cl)c4C3)CC2)C1=O (centres undefined),,,,,Ki [6]: 0.0175 µM; Ki (Mu-type opioid receptor [7]): 0.0075 µM; Ki (Nociceptin receptor [8]): 0.0085 µM; Ki [9]: 0.24 µM
CN1CN(c2ccccc2)C2(CCN(C3CCc4c(Cl)ccc(Cl)c4C3)CC2)C1=O (centres undefined),0.017 µM,0.0026 µM,0.0033 µM,0.313 µM,
O=C1NCN(c2ccccc2)C12CCN([C@@H]1CCc3c(Cl)ccc(Cl)c3C1)CC2,0.0473 µM,0.0084 µM,0.0207 µM,0.587 µM,
O=C1NCN(c2ccccc2)C12CCN(C1CCc3c(Cl)cccc3C1)CC2 (centres undefined),0.0207 µM,0.0089 µM,0.0029 µM,0.45 µM,
O=C1NCN(c2ccccc2)C12CCN(C1Cc3ccccc3C1)CC2,0.161 µM,0.026 µM,0.0025 µM,0.71 µM,EC50 (Nociceptin receptor [10]): 0.5 µM
O=C1N(CCO)CN(c2ccccc2)C12CCN(C1CCc3cccc(Cl)c3C1)CC2 (centres undefined),0.0164 µM,0.0033 µM,0.0072 µM,0.285 µM,
O=C1NCN(c2ccccc2)C12CCN(C1CCc3c(Cl)ccc(Cl)c3C1)CC2 (centres undefined),0.0442 µM,0.0072 µM,0.0056 µM,0.68 µM,EC50 (Nociceptin receptor [11]): 1.5 µM; EC50 (Mu-type opioid receptor [12]): 0.31 µM
O=C1NCN(c2ccccc2)C12CCN(C1CCc3ccccc31)CC2 (centres undefined),,,,,Ki [6]: 0.0053 µM; Ki (Mu-type opioid receptor [7]): 0.0034 µM; EC50 (Nociceptin receptor [13]): 7.9 µM; Ki (Nociceptin receptor [8]): 0.0007 µM; Ki [9]: 0.54 µM
